# Measured values published in article PMC7504677, “Impact of N-Alkylamino Substituents on Serotonin Receptor (5-HTR) Affinity and Phosphodiesterase 10A (PDE10A) Inhibition of Isoindole-1,3-dione Derivatives” (Molecules, 2020).
# Chains of the proteins cited; added tags and fusions are not shown.
# UniProt Q9Y233, whole entry, species assumed: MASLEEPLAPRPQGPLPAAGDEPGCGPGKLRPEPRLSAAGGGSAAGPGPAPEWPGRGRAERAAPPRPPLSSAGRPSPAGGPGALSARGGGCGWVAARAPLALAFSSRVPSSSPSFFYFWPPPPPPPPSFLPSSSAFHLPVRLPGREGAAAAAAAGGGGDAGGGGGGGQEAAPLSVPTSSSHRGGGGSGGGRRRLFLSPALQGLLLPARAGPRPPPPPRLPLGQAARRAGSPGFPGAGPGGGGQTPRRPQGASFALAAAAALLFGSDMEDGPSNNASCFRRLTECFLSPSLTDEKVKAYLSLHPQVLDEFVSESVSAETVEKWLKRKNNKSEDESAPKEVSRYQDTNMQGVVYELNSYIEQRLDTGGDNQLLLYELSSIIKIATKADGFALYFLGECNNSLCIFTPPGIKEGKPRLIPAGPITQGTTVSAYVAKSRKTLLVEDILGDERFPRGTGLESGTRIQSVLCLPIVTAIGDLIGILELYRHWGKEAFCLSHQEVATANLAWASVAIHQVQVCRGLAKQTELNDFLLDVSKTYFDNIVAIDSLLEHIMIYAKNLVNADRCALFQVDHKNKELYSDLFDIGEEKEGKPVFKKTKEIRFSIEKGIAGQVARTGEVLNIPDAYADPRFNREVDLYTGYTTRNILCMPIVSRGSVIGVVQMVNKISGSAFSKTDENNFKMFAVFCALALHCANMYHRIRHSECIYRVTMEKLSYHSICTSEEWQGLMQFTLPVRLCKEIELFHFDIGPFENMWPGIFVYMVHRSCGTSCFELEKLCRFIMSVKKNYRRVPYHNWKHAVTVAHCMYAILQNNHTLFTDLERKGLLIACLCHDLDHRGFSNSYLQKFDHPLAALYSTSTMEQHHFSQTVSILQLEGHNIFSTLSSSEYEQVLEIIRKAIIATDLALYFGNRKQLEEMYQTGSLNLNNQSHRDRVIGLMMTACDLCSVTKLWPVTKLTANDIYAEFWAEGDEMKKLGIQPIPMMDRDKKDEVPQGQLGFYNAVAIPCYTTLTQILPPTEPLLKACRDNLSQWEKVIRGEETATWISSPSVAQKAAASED
# Target: PDE10A (Homo sapiens, UniProt Q9Y233)
# Experiment: luminescence PDE inhibition assay (PDElight HTS cAMP phosphodiesterase assay kit)
# Format: biochemical
# Description: Test and reference compounds were dissolved in dimethyl sulfoxide (DMSO) at a concentration of 1 mM and further diluted in assay buffer in order to obtain the final concentration of compounds: 10 µM and 3 µM, respectively. All reactions were carried out at 37 °C in white, half-area 96-well plates (Perkin Elmer, Waltham, MA, USA). The inhibition of PDE 10A enzyme was measured using the PDElight HTS cAMP phosphodiesterase assay kit (Lonza) according to the manufacturer’s recommendations. 2.5 U of PDE 10A enzyme was preincubated either with DMSO (vehicle control) or compound for 20 min before incubation with the substrate, cAMP (final concentration 1.25 µM), for 1 h. Then, PDELight AMP Detection Reagent was added. After 10 min incubation, the luminescence was measured in a multifunction plate reader (POLARstar Omega, BMG Labtech, Ortenberg, Germany).
structure (smiles),measurement,value
"COc1ccc(Cc2nccc3cc(OC)c(OC)cc23)cc1OC [Papaverine, papaverine]",IC50,5.755 ± 0.055 µM
